Experimental data as given in publication PMC4792735 (Clinical pharmacokinetics, 2016).

Legend:
human MATE1 = target: T1, human MATE1 (Homo sapiens, UniProt Q96FL8); experiment: cell-based
T1 sequence (Q96FL8 1-570): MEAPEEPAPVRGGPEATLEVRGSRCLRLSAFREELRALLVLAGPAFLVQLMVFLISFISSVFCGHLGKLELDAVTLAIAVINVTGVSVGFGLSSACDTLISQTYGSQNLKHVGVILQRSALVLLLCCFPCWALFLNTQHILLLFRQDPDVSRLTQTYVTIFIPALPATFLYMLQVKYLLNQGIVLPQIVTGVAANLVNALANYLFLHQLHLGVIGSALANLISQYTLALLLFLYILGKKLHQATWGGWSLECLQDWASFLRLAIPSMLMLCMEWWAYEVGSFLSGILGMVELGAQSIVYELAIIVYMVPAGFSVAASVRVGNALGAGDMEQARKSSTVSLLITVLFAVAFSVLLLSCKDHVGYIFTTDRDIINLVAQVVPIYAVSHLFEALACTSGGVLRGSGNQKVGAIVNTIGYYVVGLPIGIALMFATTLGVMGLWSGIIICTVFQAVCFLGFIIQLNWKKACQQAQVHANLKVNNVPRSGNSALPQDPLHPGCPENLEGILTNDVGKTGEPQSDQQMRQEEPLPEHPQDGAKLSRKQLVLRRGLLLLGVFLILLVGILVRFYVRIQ

human MATE2K = target: T2, human MATE2K (Homo sapiens, UniProt Q86VL8); experiment: cell-based
T2 sequence (Q86VL8 1-566 isoform Q86VL8-3): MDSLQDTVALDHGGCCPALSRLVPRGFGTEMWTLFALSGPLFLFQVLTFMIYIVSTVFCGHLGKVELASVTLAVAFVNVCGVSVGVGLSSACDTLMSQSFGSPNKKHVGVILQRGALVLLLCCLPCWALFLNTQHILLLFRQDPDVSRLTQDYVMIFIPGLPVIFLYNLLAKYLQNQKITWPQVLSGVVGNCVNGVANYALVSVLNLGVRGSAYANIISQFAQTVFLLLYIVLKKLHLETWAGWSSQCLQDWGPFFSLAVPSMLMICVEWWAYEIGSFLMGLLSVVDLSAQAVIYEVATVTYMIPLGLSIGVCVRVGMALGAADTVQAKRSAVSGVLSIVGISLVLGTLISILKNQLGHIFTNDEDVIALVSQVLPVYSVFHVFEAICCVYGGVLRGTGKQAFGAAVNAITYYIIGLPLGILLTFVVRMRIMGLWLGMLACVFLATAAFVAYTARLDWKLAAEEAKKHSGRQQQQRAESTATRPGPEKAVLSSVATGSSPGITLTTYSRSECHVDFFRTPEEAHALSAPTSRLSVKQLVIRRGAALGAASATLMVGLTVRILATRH

IC50 (human MATE1): 0.05 µM
IC50 (human MATE2K): 0.08 µM
SMILES: Cc1nccn1CC1CCc2c(c3ccccc3n2C)C1=O (centres unmarked) [ondansetron]
